Our source for the inhibition values is ChEMBL document CHEMBL3580637, “Selective Inhibition of Bacterial Topoisomerase I by alkynyl-bisbenzimidazoles” (Medchemcomm, 2014).

What is called inhibition is the drop in the measured response relative to a control, in per cent.

For the test, the target named is T1, DNA topoisomerase 1 (Homo sapiens) (UniProt P11387).
T1 sequence (whole entry): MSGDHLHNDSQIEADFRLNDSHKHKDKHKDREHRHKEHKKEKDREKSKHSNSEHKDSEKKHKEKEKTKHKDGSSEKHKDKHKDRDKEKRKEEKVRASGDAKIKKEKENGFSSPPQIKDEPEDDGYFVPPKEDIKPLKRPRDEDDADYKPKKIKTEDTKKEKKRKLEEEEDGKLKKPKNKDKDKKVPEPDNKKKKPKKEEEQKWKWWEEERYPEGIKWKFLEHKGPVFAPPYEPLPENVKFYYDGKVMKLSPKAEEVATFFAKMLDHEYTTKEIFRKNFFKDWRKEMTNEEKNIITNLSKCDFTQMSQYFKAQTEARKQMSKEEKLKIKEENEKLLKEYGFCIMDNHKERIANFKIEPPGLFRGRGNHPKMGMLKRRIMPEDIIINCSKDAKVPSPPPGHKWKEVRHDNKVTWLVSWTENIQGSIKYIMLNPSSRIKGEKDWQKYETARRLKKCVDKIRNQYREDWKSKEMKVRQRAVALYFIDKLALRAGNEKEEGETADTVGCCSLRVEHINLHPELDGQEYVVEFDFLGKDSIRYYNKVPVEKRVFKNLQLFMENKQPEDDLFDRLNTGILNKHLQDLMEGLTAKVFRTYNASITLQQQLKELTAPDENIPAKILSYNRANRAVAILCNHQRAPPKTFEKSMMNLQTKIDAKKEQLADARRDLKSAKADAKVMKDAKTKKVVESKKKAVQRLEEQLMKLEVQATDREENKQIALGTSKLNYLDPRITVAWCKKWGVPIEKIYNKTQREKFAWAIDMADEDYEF
Put plainly: Inhibition of human DNA topoisomerase-1 using supercoiled pBAD-GFPuv plasmid DNA as substrate assessed as prevention of supercoiled DNA template from relaxation at 50 uM after 30 mins by agarose gel electrophoresis relative to control. The procedure, abridged: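 Human topoisomerase I (2 units) was incubated with 250 ng supercoiled pBAD-GFPuv in 20 mM Tris-HCl pH 7.9, 50 mM KAc, 10 mM Mg(Ac)2, 1 mM DTT and 1 µg/ml BSA, with compound at 10 or 50 µM, for 30 min at 37 °C. After a phenol stop, DNA was resolved on 1% agarose without chloroquine beside a relaxed plasmid marker and stained with ethidium bromide.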

Molecules are shown by their SMILES.

Regarding `CN1CCN(c2ccc3[nH]c(-c4ccc5[nH]c(-c6ccc(O)cc6)nc5c4)nc3c2)CC1` [HOECHST 33258], the inhibition came out at 70%.
